This assay concerns the target T1, p38 (Homo sapiens, UniProt Q16539).
T1 construct: made in house
Kind of assay: Protein Kinase Assay (33P incorporation from γ-[33P]ATP into GST-ATF-2 substrate). Type of assay: biochemical. As to conditions: compound at 10 μM. As for the experimental part: Human non-activated p38 kinase (MW=43 kDa) was purified according to the protocol described herein. Chemicals were purchased from Calbiochem. Fluorescence characterizations were conducted using a Cary Eclipse (Varian Analytical Instruments, Walnut Creek, Calif.). Research-grade CM5 sensor chips and coupling reagents (N-ethyl-N′-dimethylaminopropylcarbodiimide (EDC) N-hydroxysuccinimide (NHS), and 1 M ethanolamine HCl, pH 8.5) were purchased from Biacore AB (Uppsala, Sweden). The biosensor analyses were conducted using a Biacore 3000 SPR instrument. The kinetic analyses were carried on a Molecular Devices spectrophotometer (Molecular Devices Corporation, CA, USA).
Protein Kinase Assay. The protein kinase activity of p38 was determined by measuring the incorporation of ^33P from γ-[^33P]ATP into the GST-ATF-2 substrate, amino acids 19-96 (Upstate, NY USA). […] Compounds were preincubated with 10 nM p38 for 20 min at 30° C.; the reactions were initiated by the addition of GST-ATF2 and ATP and incubated for 70 min at 30° C. before being stopped by the addition of 10 μL of 600 mM phosphoric acid. The phosphorylated substrate was captured on phosphocellulose 96-well plate (Millipore MAPHNOB 10), washed with 100 mM phosphoric acid, and counted in a BeckmenCoulter LS6500 liquid scintillation counter.

Chains of the proteins cited; added tags and fusions are not shown.
UniProt Q16539, whole entry: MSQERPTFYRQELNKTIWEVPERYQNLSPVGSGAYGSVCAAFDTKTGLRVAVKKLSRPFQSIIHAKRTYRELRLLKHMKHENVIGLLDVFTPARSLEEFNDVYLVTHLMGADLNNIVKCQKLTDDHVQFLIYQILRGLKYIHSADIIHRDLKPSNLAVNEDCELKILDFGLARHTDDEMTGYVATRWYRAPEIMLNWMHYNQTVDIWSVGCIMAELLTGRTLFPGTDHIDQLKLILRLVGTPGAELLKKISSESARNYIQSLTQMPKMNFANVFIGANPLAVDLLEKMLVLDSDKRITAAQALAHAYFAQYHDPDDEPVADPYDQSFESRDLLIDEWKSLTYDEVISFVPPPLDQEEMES

The term inhibition denotes how much of the control response was suppressed. High values mean a response far below the control, low ones a response near the control. On to `CC(C)(C)c1cc(C(=O)N2CCNC(=O)CC2)c(NC(=O)Nc2cccc3ccccc23)s1` [Example 36, 1-[5-tert-butyl-3-(5-oxo[1,4]diazepane-1-carbonyl)thiophen-2-yl]-3-naphthalen-1-yl-urea], for which the inhibition at 10 µM lay in the range of 76 to 100%.

These data come from patent US7741479B2, “Urea inhibitors of MAP kinases” (Locus Pharmaceuticals, Inc., priority 2004, dated 2010).
